Test results reported in patent US9227935B2, “Piperidine/piperazine derivatives” (Janssen Pharmaceutica N.V., priority 2007, dated 2016).

Protein sequences, listed by entry. Tags and fused reporters are not part of them.
UniProt O75907, whole entry: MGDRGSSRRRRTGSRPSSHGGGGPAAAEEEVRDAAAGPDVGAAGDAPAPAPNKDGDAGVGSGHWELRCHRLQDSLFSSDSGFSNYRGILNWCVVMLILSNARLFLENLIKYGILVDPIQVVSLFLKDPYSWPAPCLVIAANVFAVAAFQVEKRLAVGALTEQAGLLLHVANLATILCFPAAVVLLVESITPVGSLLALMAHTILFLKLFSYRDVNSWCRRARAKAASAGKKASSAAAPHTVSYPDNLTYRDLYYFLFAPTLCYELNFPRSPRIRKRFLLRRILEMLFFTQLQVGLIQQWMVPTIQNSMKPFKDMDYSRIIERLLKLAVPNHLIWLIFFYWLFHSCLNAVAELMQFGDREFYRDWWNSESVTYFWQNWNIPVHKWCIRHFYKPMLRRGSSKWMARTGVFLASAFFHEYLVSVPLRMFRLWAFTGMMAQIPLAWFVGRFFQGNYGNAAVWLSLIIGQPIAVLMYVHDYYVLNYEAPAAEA

The molecules below were run against human DGAT1 (Homo sapiens, UniProt O75907) (assay: DGAT1 FlashPlate inhibition assay with DGAT1 membrane preparations). Details: IC50 values expressed in M; pIC50 = -logIC50; inhibition of DGAT1 activity.
Text: The inhibiting activity of the present compounds on DGAT1 activity was screened in a single well procedure assay using DGAT1 comprising membrane preparations and DGAT1 substrate comprising micelles and determining formed radio-active triacylglycerol coming in close proximity of a flashplate surface by radioluminescence.
Said assay is described in full detail in WO2006/067071, the content of which is incorporated herein by reference.
By DGAT1 activity is meant the transfer of coenzyme A activated fatty acids to the 3-position of 1,2-diacylglycerols, thus forming a triglyceride molecule, by enzyme DGAT1.
human DGAT1 (NM012079.2) was cloned into the pFastBac vector, containing translation start, a FLAG-tag at the N-terminus as described in literature and a viral Kozak sequence (AAX) preceding the ATG to improve expression in insect cells. Expression was done as described in literature (Cases, S., Smith, S. J., Zheng, Y., Myers H. M., Lear, S. R., Sande, E., Novak, S., Collins, C., Welch, C. B., Lusis, A. J., Erickson, S. K. and Farese, R. V. (1998) Proc. Natl. Acad. Sci. USA 95, 13018-13023.) using SF9 cells.
72 h transfected SF9 cells were collected by centrifugation (13000 rpm-15 min-4° C.) and lysed in 2×500 ml lysis buffer (0.1M Sucrose, 50 mM KCl, 40 mM KH2PO4, 30 mM EDTA pH 7.2. Cells were homogenized by cell disruptor. After centrifugation 1380 rpm-15 min-4° C. (SN discarded), pellet was resuspended in 500 ml lysis buffer and total cell membranes collected by ultracentrifugation at 34000 rpm (100 000 g) for 60 min (4° C.). The collected membranes were resuspended in lysis buffer, divided in aliquots and stored with 10% glycerol at −80° C. until use.
Add 1 ml dioleoyl-sn-glycerol (10 mg/ml) to 10 ml of L-α-phosphatidylcholine (1 mg/ml) and 10 ml of L-α-phosphatidyl-L-serine (1 mg/ml) in a thick glass recipient. Evaporate under nitrogen and put on ice for 15 minutes. Reconstitute in 10 ml Tris/HCl (10 mM, pH 7.4) by sonication on ice. The sonification process consists of sonification cycles of 10 seconds in the sonification bath followed by 10 seconds cool down on ice and repeating this sonification cycle till a homogeneous solution is obtained (takes about 15 minutes). The thus obtained micelles are stored at −20° C. till later use and contain DAG at a final concentration of 1.61 mM.
• 50 mM Tris-HCl (pH 7.4), 150 mM MgCl2, 1 mM EDTA, 0.2% BSA. b) N-ethylmaleimide, 5M • Dissolve 5 g into a final volume of 8 ml DMSO 100% and store at −20° C. in aliquots till later use. c) Substrate mix (for 1 384 well plate=3840 μl) • 612 μl micelles stock (51 μM final) • 16.6 μl oleoylCoA 9.7 mM • 23 μl [^3H]-oleoylCoA (49 Ci/mmol, 500 μCi/ml) • 3188.4 μl Tris pH 7.4, 10 mM d) Enzyme mix (for 1 384 well plate=3520 μl) (5 μg/ml) • Add 11.73 μl of DGAT membrane stock (1500 μg/ml stock) to 3508 μl assay buffer. e) Stop mix (for 1 384 well plate=7.68 ml) (250 mM) • Add 384 μl of N-ethylmaleimide (5M) to 3.456 ml DMSO 100%, and further dilute 3.84 ml of said solution with 3.84 ml DMSO 10%. Method
DGAT activity in membrane preparations was assayed in 50 mM Tris-HCl (pH 7.4), 150 mM MgCl2, 1 mM EDTA and 0.2% BSA, containing 50 μM DAG, […] PC/PS and 8.4 μM [^3H]-oleoylCoA (at a specific activity of 30 nCi/well) in a final volume of 50 μl in 384-well format using the red shifted Basic Image FlashPlate™ (Perkin Elmer Cat. No. SMP400).
In detail, 10 μl enzyme mix and 10 μl substrate mix were added to 30 μl of assay buffer, optionally in the presence of 1 μl DMSO (blank and controls) or 1 μl of the compound to be tested. This reaction mixture was incubated for 120 minutes at 37° C. and the enzymatic reaction stopped by adding 20 μl of the stop mix. The plates were sealed and the vesicles allowed to settle overnight at room temperature. Plates were centrifuged for 5 minutes at 1500 rpm and measured in Leadseeker. […]

Row | pIC50 | SMILES
1 | 6.96 | CCCCc1ccc(C(=O)Nc2ccc(N3CCN(C(=O)Cc4ccccc4C)CC3)cc2)cc1
2 | 6.15 | Cc1nc(C(=O)Nc2ccc(C3CCN(C(=O)Nc4c(Cl)cccc4Cl)CC3)cc2)c(-c2ccc3c(c2)OCO3)s1
3 | 5.89 | O=C(Nc1c(Cl)cccc1Cl)c1ccc(N2CCN(C(=O)Cc3c(Cl)cccc3Cl)CC2)cc1
4 | 5.03 | COc1ccc(CNC(=O)N2CCN(c3ccc(C(=O)Nc4c(Cl)cccc4Cl)cc3)CC2)cc1
5 | 7.34 | Cc1cc(Cl)c(CC(=O)N2CCN(c3ccc(C(=O)Nc4cccc(N5CCCC5)c4)cc3)CC2)c(Cl)n1
6 | 5.13 | O=C(Nc1ccc(N2CCN(C(=O)NC3CCCCC3)CC2)cc1)c1ccccc1-c1ccc(C(F)(F)F)cc1
7 | 6.75 | Cc1ccccc1CC(=O)N1CCN(c2ccc(NC(=O)c3cccc(Br)c3)cc2)CC1
8 | 6.67 | COc1ccc(NC(=O)c2ccc(N3CCN(C(=O)Nc4c(Cl)cc(CN5CCCC5)cc4Cl)CC3)cc2F)cc1
